The nature of this experiment: IC90 of viability of cells in the absence of infecting HIV-1 / IC50 of virion associated RT activity in HIV-1 infected MT2. Format: functional.

The structures appear in SMILES notation.

On to `CC(C)CN(C[C@@H](O)[C@H](Cc1ccccc1)NC(=O)O[C@H]1CCOC1)S(=O)(=O)c1ccc(N)cc1` [AMPRENAVIR], for which the SI was 125.

Values taken from ChEMBL document CHEMBL1135804, “Beta-strand mimicking macrocyclic amino acids: templates for protease inhibitors with antiviral activity” (J Med Chem, 2002).
